Patent publication US20200299400A1 (published 2020)

T1: human GITR on cells (human, UniProt Q9Y5U5 26-241)
T1 chain: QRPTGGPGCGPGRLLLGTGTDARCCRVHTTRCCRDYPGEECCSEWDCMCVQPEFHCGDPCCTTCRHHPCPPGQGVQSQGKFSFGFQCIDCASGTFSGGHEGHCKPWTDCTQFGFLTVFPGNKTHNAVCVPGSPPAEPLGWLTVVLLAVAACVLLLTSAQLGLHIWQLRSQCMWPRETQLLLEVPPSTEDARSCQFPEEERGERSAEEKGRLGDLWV


Target: T1, human GITR on cells
Experiment: FACS binding to activated human CD4 T cells

| EC50 [nM] | Binder |
| --- | --- |
| 0.257 | anti-GITR-IgG1 (antibody) heavy: QVQLVESGGGVVQPGRSLRLSCAASGFTFSSYGMHWVRQAPGKGLEWVAVIWYEGSNKYYADSVKGRFTISRDNSKNTLYLQMNSLRAEDTAVYYCARGGSMVRGDYYYGMDVWGQGTTVTVSSASTKGPSVFPLAPSSKSTSGGTAALGCLVKDYFPEPVTVSWNSGALTSGVHTFPAVLQSSGLYSLSSVVTVPSSSLGTQTYICNVNHKPSNTKVDKKV[left out - human IgG1 Fc] light: AIQLTQSPSSLSASVGDRVTITCRASQGISSALAWYQQKPGKAPKLLIYDASSLESGVPSRFSGSGSGTDFTLTISSLQPEDFATYYCQQFNSYPYTFGQGTKLEIKRTVAAPSVFIFPPSDEQLKSGTASVVCLLNNFYPREAKVQWKVDNALQSGNSQESVTEQDSKDSTYSLSSTLTLSKADYEKHKVYACEVTHQGLSSPVTKSFNRGEC |
| 0.203 | anti-GITR-IgG2-IgG1 (antibody) heavy: QVQLVESGGGVVQPGRSLRLSCAASGFTFSSYGMHWVRQAPGKGLEWVAVIWYEGSNKYYADSVKGRFTISRDNSKNTLYLQMNSLRAEDTAVYYCARGGSMVRGDYYYGMDVWGQGTTVTVSSASTKGPSVFPLAPCSRSTSESTAALGCLVKDYFPEPVTVSWNSGALTSGVHTFPAVLQSSGLYSLSSVVTVPSSNFGTQTYTCNVDHKPSNTKVDKTVERKCCVE[left out - human IgG1 Fc] light: AIQLTQSPSSLSASVGDRVTITCRASQGISSALAWYQQKPGKAPKLLIYDASSLESGVPSRFSGSGSGTDFTLTISSLQPEDFATYYCQQFNSYPYTFGQGTKLEIKRTVAAPSVFIFPPSDEQLKSGTASVVCLLNNFYPREAKVQWKVDNALQSGNSQESVTEQDSKDSTYSLSSTLTLSKADYEKHKVYACEVTHQGLSSPVTKSFNRGEC |
| 0.286 | anti-GITR-IgG1.1 (antibody) heavy: QVQLVESGGGVVQPGRSLRLSCAASGFTFSSYGMHWVRQAPGKGLEWVAVIWYEGSNKYYADSVKGRFTISRDNSKNTLYLQMNSLRAEDTAVYYCARGGSMVRGDYYYGMDVWGQGTTVTVSSASTKGPSVFPLAPSSKSTSGGTAALGCLVKDYFPEPVTVSWNSGALTSGVHTFPAVLQSSGLYSLSSVVTVPSSSLGTQTYICNVNHKPSNTKVDKKVEPKSCDKTHTCPPCPAPEAEGAPSVFLFPPKPKDTLMISRTPEVTCVVVDVSHEDPEVKFNWYVDGVEVHNAKTKPREEQYNSTYRVVSVLTVLHQDWLNGKEYKCKVSNKALPSSIEKTISKAKGQPREPQVYTLPPSREEMTKNQVSLTCLVKGFYPSDIAVEWESNGQPENNYKTTPPVLDSDGSFFLYSKLTVDKSRWQQGNVFSCSVMHEALHNHYTQKSLSLSPG light: AIQLTQSPSSLSASVGDRVTITCRASQGISSALAWYQQKPGKAPKLLIYDASSLESGVPSRFSGSGSGTDFTLTISSLQPEDFATYYCQQFNSYPYTFGQGTKLEIKRTVAAPSVFIFPPSDEQLKSGTASVVCLLNNFYPREAKVQWKVDNALQSGNSQESVTEQDSKDSTYSLSSTLTLSKADYEKHKVYACEVTHQGLSSPVTKSFNRGEC |
